The record followed here is paper PMC9040839, “Chemotaxis of the Human Pathogen Pseudomonas aeruginosa to the Neurotransmitter Acetylcholine” (mBio, 2022).

Sequences of proteins named here, by UniProt entry; tags and fusion partners are left off.
UniProt Q9HVF8, entry or part of it: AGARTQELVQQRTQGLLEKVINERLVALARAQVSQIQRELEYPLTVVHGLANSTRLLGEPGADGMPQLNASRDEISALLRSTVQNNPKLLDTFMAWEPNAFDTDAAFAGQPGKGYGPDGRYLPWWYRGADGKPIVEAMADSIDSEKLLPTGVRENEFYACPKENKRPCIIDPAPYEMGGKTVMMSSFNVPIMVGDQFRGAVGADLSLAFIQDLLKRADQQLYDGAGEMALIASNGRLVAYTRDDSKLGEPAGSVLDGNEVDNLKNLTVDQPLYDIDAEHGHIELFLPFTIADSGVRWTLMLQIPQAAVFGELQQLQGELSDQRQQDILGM

This test has as its target PctD(PA4633)-LBD (Pseudomonas aeruginosa, UniProt Q9HVF8). Put plainly: biochemical. How it is done: Measurements were made using a VP-ITC microcalorimeter (MicroCal, Inc., Northampton, MA) at 25°C. […] The mean enthalpies from the injection of ligands into the buffer were subtracted from raw data prior to data fitting using the “one binding site model” of the MicroCal version of the ORIGIN software.

In the case of `CC(=O)OCC[N+](C)(C)C` [acetylcholine], the affinity, expressed as Kd, was 23 ± 1 µM.
